By UniProt entry, the sequences of proteins in these tests, tags left out.
UniProt P37288, whole entry: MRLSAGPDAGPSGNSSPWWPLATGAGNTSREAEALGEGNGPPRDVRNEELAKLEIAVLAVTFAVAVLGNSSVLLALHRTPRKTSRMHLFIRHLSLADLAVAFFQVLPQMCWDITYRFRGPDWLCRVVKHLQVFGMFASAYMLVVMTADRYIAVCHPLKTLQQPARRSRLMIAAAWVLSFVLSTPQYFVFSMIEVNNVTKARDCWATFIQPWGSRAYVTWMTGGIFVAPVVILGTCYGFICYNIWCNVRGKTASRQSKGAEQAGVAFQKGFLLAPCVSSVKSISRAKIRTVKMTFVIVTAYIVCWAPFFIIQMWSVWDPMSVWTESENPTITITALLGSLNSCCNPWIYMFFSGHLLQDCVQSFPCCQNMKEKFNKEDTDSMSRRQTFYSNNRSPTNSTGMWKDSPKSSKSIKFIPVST

According to patent publication US8883965B2, “Compounds” (Ferring B.V., priority 2006, dated 2014):

Biological target: T1, hV1a receptor (Homo sapiens, UniProt P37288)
T1 construct: expressed in transfected cells; host or cells: HEK-293
Test: In vitro receptor assay: transcriptional reporter (luciferase) assay of agonist activity in HEK-293 cells transiently transfected with hV1a receptor
Type: cell-based
Settings: hV1a receptor in HEK-293 cells, 5 hours exposure, geometric mean of at least three independent experiments, nanomol/L, read-out: EC50 (median effective concentration)
Protocol: Agonist activity of compounds on the hV1a receptor was determined in a transcriptional reporter assay by transiently transfecting a hV1a receptor expression DNA into HEK-293 cells in concert with a reporter DNA containing intracellular calcium responsive promoter elements regulating expression of firefly luciferase. See Boss, V., Talpade, D. J., Murphy, T. J. J. Biol. Chem. 1996, May 3; 271(18), 10429-10432 for further guidance on this assay.
The EC50 value given is the geometric mean expressed in nanomol/L (nM).

Row | EC50 | SMILES
1 | 10.7 nM | CC[C@H](C)[C@@H]1NC(=O)[C@H](CC(C)(C)C)NC(=O)[C@@H](N)CSSC[C@@H](C(=O)N2CCC[C@H]2C(=O)N[C@@H](CCN)C(=O)NCC(N)=O)NC(=O)[C@H](CC(N)=O)NC(=O)[C@H](CCC(N)=O)NC1=O [compound 5]
2 | 12 nM | CC[C@H](C)[C@@H]1NC(=O)[C@H](CC(C)C)NC(=O)[C@@H](N)CSSC[C@@H](C(=O)N2CCC[C@H]2C(=O)N[C@@H](CCN)C(=O)NCC(N)=O)NC(=O)[C@H](CC(N)=O)NC(=O)[C@H](CCC(N)=O)NC1=O [compound 6]
